Test results published in ChEMBL document CHEMBL2177058 (J Med Chem, 2012).

Sequences of proteins named here, by UniProt entry; tags and fusion partners are left off.
UniProt P35372, whole entry, looked up: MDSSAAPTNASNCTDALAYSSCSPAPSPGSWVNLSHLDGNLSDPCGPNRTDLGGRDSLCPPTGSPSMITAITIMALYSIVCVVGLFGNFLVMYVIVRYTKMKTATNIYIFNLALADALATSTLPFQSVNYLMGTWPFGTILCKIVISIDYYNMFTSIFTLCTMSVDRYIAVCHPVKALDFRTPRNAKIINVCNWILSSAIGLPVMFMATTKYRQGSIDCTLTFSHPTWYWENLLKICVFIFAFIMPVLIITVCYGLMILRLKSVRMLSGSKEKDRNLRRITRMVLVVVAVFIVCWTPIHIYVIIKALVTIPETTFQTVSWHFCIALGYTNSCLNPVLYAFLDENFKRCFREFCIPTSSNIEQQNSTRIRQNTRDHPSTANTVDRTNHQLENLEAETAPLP

Target: Mu-type opioid receptor (Homo sapiens, UniProt P35372)
Assay: Displacement of [3H]DAMGO from human mu opioid receptor expressed in CHO cell membranes incubated for 60 mins by liquid scintillation counting

CN(C(=O)Cc1ccc(Cl)c(Cl)c1)C1CCCCC1N1CCCC1 (stereo unspecified)
Ki: 290 nM
